In PubChem BioAssay AID1224861 (National Center for Advancing Translational Sciences (NCATS), 2016):
This is a selection; strong and weak results do not stand in their true shares. Results filed as inconclusive are left out. Activity calls are given as the source filed them. Calls follow the shape of the dose curve; as a rule, active = well fitted cell-killing curve with a large enough effect; inconclusive = small, poorly fitted or top-dose-only effect, or effect the other way; inactive = flat fitted curve, though single readings scatter.

Assay: Compound cytotoxicity measured by an ATP content assay as a counter-screen for lead compounds in human astrocytes
Conditions: human astrocytes viability, ATP luminescence; at 46.1 µM (top of the series)
Protocol: National Center for Advancing Translational Sciences [NCATS] Johns Hopkins University School of Medicine Florida State University Assay Overview: Many compounds can cause cytotoxicity at high compound concentrations. […] The compound cytotoxicity may also cause side effects or toxicity in human. Thus, the compound cytotoxicity needs to be measured in each cell type and each compound incubation time - same as these in the compound screening assay. The compound cytotoxicity can be measured by cell viability assays such as the ATP content assay. We use an ATP content assay kit for cell viability measurement. It measures ATP content (level) in human astrocytes using a luminescence readout that is proportional to viable cell numbers. Decrease in the luminescence signal after the compound treatment indicates reduced cell viability and cell death caused by compound treatment.
Assay Protocol Summary: The medium for astrocytes contains AM basal medium (ScienCell, Cat.# 1801), AGS (ScienCell, Cat.# 1801), 10% FBS, and 1% Pen/Strep. […] After incubation at room temperature for 10 minutes, the luminescence intensity in assay plates was measured using a ViewLux plate reader (PerkinElmer). […] The percentage inhibitions of the decreased cell viability by small molecules were then calculated that indicate compound cytotoxicity.

| SMILES | activity change, negative = cytotoxicity |
| --- | --- |
| C/C1=C2N=C(/C=C3N=C(/C(C)=C4\[N-][C@@](C)([C@@H]5N=C1[C@](C)(CCC(=O)NC[C@@H](C)OP(=O)([O-])O[C@H]1[C@@H](O)[C@@H](n6cnc7cc(C)c(C)cc76)O[C@@H]1CO)[C@H]5CC(N)=O)[C@@](C)(CC(N)=O)[C@@H]4CCC(N)=O)[C@@](C)(CC(N)=O)[C@@H]\3CCC(N)=O)C(C)(C)[C@@H]/2CCC(N)=O.[C-]#N.[Co+3] | inactive: -10.9% |
| CCOP(=O)(CC)Oc1ccc([N+](=O)[O-])cc1 (configuration not stated) | inactive: 3.19% |
